# Source: article PMC2692108
# Target: GFP-actin^G13R (UniProt P60709)
# Experiment: FRET or BRET
substance,measurement,value
DsRed-GPVAT-Tβ4 (from UniProt P62326 1-44) (natural protein),maximum E FRET (acceptor photobleaching),23%
